{"source": "patent US20250248951A1", "about": "“[…] PREPARATION AND USE THEREOF” (YICHANG HUMANWELL PHARMACEUTICAL CO., LTD., priority 2022, published 2025)", "origin": "cited, not measured here", "test_system": "5-HT"}
{"smiles": "CN[C@]1(c2ccccc2Cl)CCCCC1=O.Cl", "note": "[D-ketamine, (S)-2-(2-chlorophenyl)-2-(methylamino) cyclohexanone hydrochloride]", "values": [{"measurement": "inhibitory effect on 5-HT, % of L-ketamine", "result": 50, "unit": "%"}]}
